Experimental data from PubChem BioAssay AID651821 (The Scripps Research Institute Molecular Screening Center, 2012).
This is a selection; strong and weak results do not stand in their true shares. Some results for these compounds are left out of this collection, so the calls shown say nothing about other tests. Calls of active or inactive are those of the source.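 How the source made its calls: active means inhibition above the plate cutoff, the mean of all test compounds on that plate plus 3 SD (cut at about 35% in these data); inactive means the rest.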

Experiment: small molecules binding CAG repeat RNA – biochemical, fluorescence, primary screen (AID 651821);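 further: 0% = DMSO alone and 100% = 100 µM mitoxantrone as full dye displacement; higher means more dye released from RNA so lower well fluorescence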
Details: r(CAG) RNA repeat, TO-PRO-1 dye displacement fluorescence; at 3 µM; stronger effect = higher value
In the case of `O=C(NCC1(N2CCCCC2)CCCCC1)c1cc([N+](=O)[O-])ccc1Cl`, the inhibition is reported as inactive: 0.32%.
In the case of `CN1[C@@H]2CC[C@H]1CC(OC(=O)C(O)(c1ccccc1)c1ccccc1)C2` (stereo partly specified), the inhibition is reported as inactive: 0.28%.
In the case of `COc1cc(SC)ccc1C(=O)NCC1(N(C)C)CCCCC1`, the inhibition is reported as inactive: -7.54%.
For `CCN(CC)CC(C)C(C)OC(=O)C(O)(c1ccccc1)c1ccccc1` (stereo unspecified), the inhibition was inactive: -3.61%.
For `CC(C)N1C(=O)CC2(CCN(CCOC(=O)C(O)(c3ccccc3)c3ccccc3)CC2)C1=O`, the inhibition was inactive: -11.8%.
For `Cc1ccc(C(=O)NCC2(N3CCCCC3)CCCCC2)cc1`, the inhibition was inactive: 2.98%.
With `CN(C)C1CCCC1OC(=O)C(O)(c1ccccc1)c1ccccc1` (stereo unspecified) the inhibition was inactive: -2.88%.
For `CN(C)c1ccc(C(=O)NCC2(N(C)C)CCCCC2)cc1`, the inhibition was inactive: -4.55%.
For `Cc1ccccc1C(=O)NCC1(N2CCCCC2)CCCCC1`, the inhibition was inactive: -0.43%.
With `O=C(NCC1(N2CCCCC2)CCCCC1)c1cc(F)c(F)cc1Cl` the inhibition was inactive: -0.95%.
In the case of `C=CCN1CCN(CCOC(=O)C(O)(c2ccccc2)c2ccccc2)CC1`, the inhibition is reported as inactive: -7.77%.
With `COc1ccc(C(=O)NCC2(N(C)C)CCCCC2)cc1` the inhibition was inactive: 2.31%.
For `O=C(NCC1(N2CCCCC2)CCCCC1)c1cccc(Br)c1`, the inhibition was inactive: -1.65%.
For `Cc1cc(C(=O)NCC2(N3CCCCC3)CCCCC2)ccc1[N+](=O)[O-]`, the inhibition was inactive: 0.99%.
With `CCN1CCCC(OC(=O)C2(O)c3ccccc3C=Cc3ccccc32)C1` (stereo unspecified) the inhibition was inactive: -1.53%.
With `CN(C)C1(CNC(=O)c2ccc(Br)cc2)CCCCC1` the inhibition was inactive: 1.22%.
In the case of `COc1cc(C(=O)NCC2(N(C)C)CCCCC2)c([N+](=O)[O-])cc1OC`, the inhibition is reported as inactive: -4.87%.
With `COc1ccc(Cl)cc1C(=O)NCC1(N(C)C)CCCCC1` the inhibition was inactive: -1.71%.
With `COc1cccc(C(=O)NCC2(N3CCCCC3)CCCCC2)c1` the inhibition was inactive: -3.26%.
In the case of `O=C(NCC1(N2CCCCC2)CCCCC1)c1cccc(Cl)c1`, the inhibition is reported as inactive: 6.16%.
In the case of `O=C(OC1CN2CCC1CC2)C(CO)(c1ccccc1)c1ccccc1` (stereo unspecified), the inhibition is reported as inactive: -1.22%.
With `C=C(C)C#CC(O)(C(=O)OC1CCN(C)CC1)c1ccccc1` (stereo unspecified) the inhibition was inactive: 2.37%.
With `COc1ccc(Br)c(C(=O)NCC2(N3CCCCC3)CCCCC2)c1` the inhibition was inactive: -3.35%.
In the case of `O=C(OCCN1CCCC1)C(O)(c1ccccc1)c1ccccc1`, the inhibition is reported as inactive: 0.68%.
For `CC(C)Oc1ccc(C(=O)NCC2(N(C)C)CCCCC2)cc1`, the inhibition was inactive: -4.85%.
With `CN(C)c1cccc(C(=O)NCC2(N(C)C)CCCCC2)c1` the inhibition was inactive: -3.86%.
